Shown are results outside the selection of lowest values, which stands elsewhere.
What follows are compounds tested on U2OS (assay: mean cytoplasmic OPP incorporation (global translation) relative to DMSO (% of DMSO); higher = more protein synthesis). Details: 10 µM; 24 h.
Description: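 Primary image-based screen in U2OS cells: compounds at 10 uM for 24 h, then a 1 h o-propargyl-puromycin (OPP) pulse, click labelling, and high-throughput microscopy. Mean cytoplasmic OPP intensity and nuclei count were normalised to DMSO wells within each plate (DMSO = 100) and averaged over triplicate plates.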

| SMILES | mean cytoplasmic OPP incorporation |
| --- | --- |
| COc1cc(Br)c(C[N+]2(CCOCCC3CCC4CC3C4(C)C)CCOCC2)cc1OC (stereo unspecified) [Pinaverium bromide] | 109 |

Source: the supplement of paper PMC8183993
